Measurements from ChEMBL document CHEMBL1933007, “Novel brain penetrant benzofuropiperidine 5-HT₆ receptor antagonists” (Bioorg Med Chem Lett, 2012).

Protein sequences, listed by entry. Tags and fused reporters are not part of them.
UniProt P50406, whole entry: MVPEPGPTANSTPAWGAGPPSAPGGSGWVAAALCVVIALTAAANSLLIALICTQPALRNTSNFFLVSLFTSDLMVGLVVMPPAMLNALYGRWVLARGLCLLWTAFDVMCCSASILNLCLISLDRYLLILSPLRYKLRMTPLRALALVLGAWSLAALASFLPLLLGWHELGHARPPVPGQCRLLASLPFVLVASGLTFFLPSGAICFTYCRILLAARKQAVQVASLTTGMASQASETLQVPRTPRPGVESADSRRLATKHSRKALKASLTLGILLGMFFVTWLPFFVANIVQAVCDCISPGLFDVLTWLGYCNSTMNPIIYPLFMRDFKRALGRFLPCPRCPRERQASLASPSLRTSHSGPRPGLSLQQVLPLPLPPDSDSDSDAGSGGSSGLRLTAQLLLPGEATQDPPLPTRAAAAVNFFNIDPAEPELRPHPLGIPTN

Biological target: 5-hydroxytryptamine receptor 6 (Homo sapiens, UniProt P50406)
Assay: Antagonist activity at human recombinant 5-HT6 receptor expressed human astrocytoma cells assessed as inhibition of 5-HT-induced cAMP accumulation after 10 mins preincubation by HTRF assay

Compound: O=S(=O)(c1cccc(F)c1)c1ccc2c3c(oc2c1)C1(CCCOC1)NCC3 (stereo in doubt; 2)
- IC50: 9.8 nM
